Assay results: US20260224548A1 (priority 2022, published 2026)

Sequences of proteins named here, by UniProt entry; tags and fusion partners are left off.
UniProt P34913, whole entry: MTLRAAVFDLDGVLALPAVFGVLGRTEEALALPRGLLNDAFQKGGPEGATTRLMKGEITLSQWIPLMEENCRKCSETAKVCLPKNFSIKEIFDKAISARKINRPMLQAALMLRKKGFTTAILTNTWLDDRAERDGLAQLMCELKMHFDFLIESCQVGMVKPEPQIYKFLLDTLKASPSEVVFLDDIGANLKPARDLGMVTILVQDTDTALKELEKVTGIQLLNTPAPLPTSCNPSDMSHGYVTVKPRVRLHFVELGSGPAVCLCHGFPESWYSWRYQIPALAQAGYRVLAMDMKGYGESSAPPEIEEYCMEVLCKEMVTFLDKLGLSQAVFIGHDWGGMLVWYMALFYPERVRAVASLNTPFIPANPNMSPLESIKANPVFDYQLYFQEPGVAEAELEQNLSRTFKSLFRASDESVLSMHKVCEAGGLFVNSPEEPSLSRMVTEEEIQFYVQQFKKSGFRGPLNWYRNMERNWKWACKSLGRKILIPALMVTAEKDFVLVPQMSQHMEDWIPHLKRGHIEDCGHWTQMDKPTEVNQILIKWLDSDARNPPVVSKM

Target: HsEH (Homo sapiens, UniProt P34913)
Assay type: biochemical
Conditions: PHOME substrate 50 μM, sEH 400 ng/ml, 37° C., 10 min, fluorescence 330/465 nm; read-out: HsEH IC50 (nM) Inhibitory activity against HsEH
Source text: Detection principle: a specific substrate, (3-phenyl-oxy)-acetic acid cyano-(6-methoxy-naphthalen-2-yl)methyl ester, namely PHOME, is non-fluorescent but can be hydrolyzed under the action of sEH enzyme to generate a product 6-methoxy-2-naphthaldehyde. The 6-methoxy-2-naphthaldehyde can emit fluorescence with a wavelength of 465 nm under 330 nm light wave excitation, and an intensity of the detected fluorescence signal is inversely proportional to an inhibitory effect on the sEH enzyme. Based on the above principle, the inhibition rates of samples with different concentrations were calculated compared with the positive control group. The IC50 value of the compound was calculated based on the inhibition rate and concentration using SPSS 20 software.
25 mM Tris-HCl buffer (pH=7.4, containing 0.1 mg/mL BSA): […] BAS was added to 12.5 mL of 1 M Tris-HCl buffer, followed by diluting with purified water, and a resulting mixture was adjusted to a pH value of 7.4 with hydrochloric acid, and diluted to 500 mL. […]
Three replicate wells were set for each sample, and the average value of the three replicate wells was the fluorescence value (F) of the compound to be tested. […] The IC50 value of the compound was calculated based on the inhibition rate and concentration using SPSS 20 software.

For `CCC(C)C(=O)N1CCC(CC(=O)N2CCCN(C(=O)c3ccc(NC(=O)NC45CC6CC(C)(CC(C)(C6)C4)C5)c(F)c3)CC2)CC1` [CC-103, 1-((1r,3R,5S,7r)-3,5-dimethyladamantan-1-yl)-3-(2-fluoro-4-(4-(2-(1-(2-methylbutyryl)piperidin-4-yl)acetyl)-1,4-diaza-1-carbonyl)phenyl) urea], the IC50 was 1 nM.
